This is a selection; strong and weak results do not stand in their true shares. Some structures show a salt or complex split into parts, the way the source records it. The source made the active and inactive calls.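 How the source made its calls: active means B-score over 3 SD under the library average, no early fluorescence shift, positive overall ratio signal; inactive means the rest.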
Each compound was assayed against Short transient receptor potential channel 4 (Mus musculus) (UniProt Q9QUQ5) (assay: inhibitors of mouse TRPC4 channel, primary screen, Fluo4 calcium, HEK293 TRPC4beta/mu-opioid cells (AID 2247)). Settings: DAMGO-evoked Fluo4 calcium flux, at 10 µM.

By UniProt entry, the sequences of proteins in these tests, tags left out.
UniProt Q9QUQ5, whole entry: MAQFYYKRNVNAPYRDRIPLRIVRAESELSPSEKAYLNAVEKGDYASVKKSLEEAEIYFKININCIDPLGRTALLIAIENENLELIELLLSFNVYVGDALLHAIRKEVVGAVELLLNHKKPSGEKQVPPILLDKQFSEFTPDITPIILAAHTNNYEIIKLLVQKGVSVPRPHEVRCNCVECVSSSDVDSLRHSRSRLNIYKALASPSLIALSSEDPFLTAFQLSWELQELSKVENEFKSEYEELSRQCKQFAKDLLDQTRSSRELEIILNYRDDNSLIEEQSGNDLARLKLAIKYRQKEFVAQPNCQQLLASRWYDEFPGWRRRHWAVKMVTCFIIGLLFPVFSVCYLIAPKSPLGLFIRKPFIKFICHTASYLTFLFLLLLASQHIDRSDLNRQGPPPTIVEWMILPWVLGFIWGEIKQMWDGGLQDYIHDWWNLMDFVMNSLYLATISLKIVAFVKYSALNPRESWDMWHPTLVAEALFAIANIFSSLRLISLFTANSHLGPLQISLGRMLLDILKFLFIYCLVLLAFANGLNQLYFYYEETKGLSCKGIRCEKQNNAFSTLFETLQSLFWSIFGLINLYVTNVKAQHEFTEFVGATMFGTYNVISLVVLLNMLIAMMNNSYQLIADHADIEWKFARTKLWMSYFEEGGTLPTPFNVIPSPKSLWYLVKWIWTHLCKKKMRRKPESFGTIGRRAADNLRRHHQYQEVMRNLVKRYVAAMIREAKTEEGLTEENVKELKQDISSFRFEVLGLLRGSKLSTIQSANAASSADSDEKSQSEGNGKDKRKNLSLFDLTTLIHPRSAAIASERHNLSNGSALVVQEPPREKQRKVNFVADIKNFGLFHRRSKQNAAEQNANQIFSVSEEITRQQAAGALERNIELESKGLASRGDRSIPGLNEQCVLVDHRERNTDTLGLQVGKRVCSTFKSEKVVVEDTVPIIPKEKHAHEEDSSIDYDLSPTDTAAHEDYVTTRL

| SMILES | outcome |
| --- | --- |
| CC(C)(C)C(=O)NC(Sc1ccncn1)C(Cl)(Cl)Cl (stereo not given) | inactive |
| O=[N+]([O-])c1ncn(CCn2ncnc2[N+](=O)[O-])n1 | inactive |
| O=[N+]([O-])c1cccc(NC2=NCC(CBr)S2)c1 (stereo not given) | inactive |
| O=C(O)CNc1ccc([As](=O)(O)O)cc1 | inactive |
| Nc1ccc2c(ccc3cccnc32)n1.O=[N+]([O-])c1cc([N+](=O)[O-])c(O)c([N+](=O)[O-])c1 | inactive |
| O=C(Nc1cc([As](=O)(O)O)ccc1O)c1ccccc1 | inactive |
| CCOC(=O)c1ccc(NP(C)(=O)Oc2ccc(Cl)cc2)cc1 (stereo not given) | inactive |
| CP(=O)(OC12CC3CC(CC(C3)C1)C2)OC12CC3CC(CC(C3)C1)C2 | inactive |
| C[N+]1=C2C=CC=CC=C2SC12C([N+](=O)[O-])=CC([N+](=O)[O-])=C[C-]2[N+](=O)[O-] (stereo not given) | inactive |
| COc1ccccc1OP(C)(=O)Nc1ccccc1Br (stereo not given) | inactive |
| Nc1ccc([As](=O)(O)c2ccc(N)cc2)cc1 | inactive |
| CC(C)(C)c1ccc(OP(C)(=O)O)cc1 | inactive |
| CP(=O)(Nc1ccc(Cl)cc1)Oc1ccc(F)cc1 (stereo not given) | inactive |
| CCN(/C(=N/P(=O)(N1CCOCC1)N1CCOCC1)N1CCOCC1)c1ccc(OC)cc1 | inactive |
| CN(C)C(=O)OCCc1n(C)cc[n+]1C | inactive |
| CC(C)=N/N=C(\N)N[N+](=O)[O-] | inactive |
| CN(C)C(=O)c1c([N+](=O)[O-])cc([N+](=O)[O-])cc1[N+](=O)[O-] | inactive |
| CC1CCN(C(=O)Oc2c(Cl)cc(Cl)c3cccnc23)CC1 | inactive |
| COc1ccc(OP(C)(=O)Nc2ccc(Br)cc2)cc1 (stereo not given) | inactive |
| COc1ccc(C2=NCC(CBr)S2)cc1 (stereo not given) | inactive |
| CCN(CC)CC(O)COC(=O)C(O)(c1ccccc1)C1CCCCC1 (stereo not given) | inactive |
| O=C(OCCCN1CCCC1)C(O)(c1ccccc1)C1CCCCC1 (stereo not given) | inactive |
| CC(=O)N1C2C3N(C(C)=O)C1C1N(C(C)=O)C(C(N1C(C)=O)N3C(C)=O)N2C(C)=O | inactive |

| SMILES | outcome |
| --- | --- |
| O=[N+]([O-])c1cccc2n[nH]nc12 | inactive |
| COc1ccccc1OP(C)(=O)Nc1c(C)n(C)n(-c2ccccc2)c1=O (stereo not given) | inactive |
| CCc1ccc(OP(C)(=O)Nc2cccnc2)cc1 (stereo not given) | inactive |
| O=[N+]([O-])c1cc([N+](=O)[O-])c(CCNc2ccccc2)c([N+](=O)[O-])c1 | inactive |
| CCc1nc2c(n1)c1c(non1O)c1c2no[n+]1[O-] | inactive |
| CP(=O)(Oc1ccccc1)N1CCOC1=O (stereo not given) | inactive |
| Cc1ccc(NP(=O)(Oc2ccccc2)Oc2ccccc2)nc1 | inactive |
| Nc1cc(N)c2nonc2c1[N+](=O)[O-] | inactive |
| Cc1c(NP(C)(=O)Oc2ccc(C(C)C)cc2)c(=O)n(-c2ccccc2)n1C (stereo not given) | inactive |
| O=[N+]([O-])c1cc([N+](=O)[O-])c(Nc2ccccn2)c([N+](=O)[O-])c1 | inactive |
| CC(C)CC(=O)NC(Sc1ccc(Cl)cc1)C(Cl)(Cl)Cl (stereo not given) | inactive |
| O=C(NC(Sc1ccncn1)C(Cl)(Cl)Cl)c1ccccc1 (stereo not given) | inactive |
| Cc1c2non([O-])c-2c(C)[n+](=O)[n+]1[O-] | inactive |
| Oc1ccccc1CNc1ccccn1 | inactive |
| COc1ccccc1OP(C)(=O)Nc1ccc(C)cc1C (stereo not given) | inactive |
| CP(=O)(Nc1ccccn1)Oc1ccccc1 (stereo not given) | inactive |
| CCc1ccc(OP(C)(=O)O)cc1 | inactive |
| NC(=O)c1cc([N+](=O)[O-])cc([N+](=O)[O-])c1N | inactive |
| Cc1ccc(N/C(=N/P(=O)(N2CCOCC2)N2CCOCC2)N2CCOCC2)cc1 | inactive |
| COc1ccccc1OP(C)(=O)Nc1ccc(Br)cc1 (stereo not given) | inactive |
| Cc1ccc(OP(=O)(Nc2nccs2)Oc2ccc(C)cc2)cc1 | inactive |
| COc1ccccc1OP(=O)(Nc1ccc(C)cn1)Oc1ccccc1OC | inactive |
| COc1ccc(OP(C)(=O)Nc2ccccn2)cc1 (stereo not given) | inactive |

| SMILES | outcome |
| --- | --- |
| CN1CCCC(OC(=O)C(c2ccccc2)c2ccccc2)C1 (stereo not given) | inactive |
| CN(C)CCOC(=O)C(O)(c1ccccc1)C1CCCC1 (stereo not given) | inactive |
| Clc1ccc(Cl)c(NC2=NCC(CBr)S2)c1 (stereo not given) | inactive |
| Cc1nc2ccc3ccccc3c2o1.O=[N+]([O-])c1cc([N+](=O)[O-])c(O)c([N+](=O)[O-])c1 | inactive |
| O=[N+]([O-])c1cc([N+](=O)[O-])c(CCN2CCOCC2)c([N+](=O)[O-])c1 | inactive |
| CCN(N=Nc1nonc1N)c1nonc1N | inactive |
| CP(=O)(Nc1ccc(Cl)cc1Cl)Oc1ccccc1 (stereo not given) | inactive |
| CP(=O)(OCCOc1ccccc1)OCCOc1ccccc1 | inactive |
| Nc1cccc2ccc([As](=O)(O)O)cc12 | inactive |
| CC(=O)Nc1ccc([As](=O)(O)O)cc1 | inactive |
| O=C(O)c1ccccc1[As](=O)(O)O | inactive |
| O=P(Nc1nc2ccc(Cl)cc2s1)(c1ccccc1)c1ccccc1 | inactive |
| Cc1cc(C)cc(OP(C)(=O)Nc2cccc(C(F)(F)F)c2)c1 (stereo not given) | inactive |
| COc1ccccc1OP(C)(=O)Nc1ccc(C)c(C)c1 (stereo not given) | inactive |
| CN(C(=O)Cc1ccc(Cl)c(Cl)c1)[C@H]1CCCC[C@@H]1N1CCCC1 | inactive |
| Cc1ccc(NP(=O)(Oc2ccccc2F)Oc2ccccc2F)nc1 | inactive |
| Cc1cc(SC(NC(=O)c2ccc(F)cc2)C(Cl)(Cl)Cl)ncn1 (stereo not given) | inactive |
| CCOP(=O)(Nc1ccccc1)OCC | inactive |
| COc1ccc(OP(C)(=O)Nc2ccccc2Br)cc1 (stereo not given) | inactive |
| CC(=O)NC(SC(=S)N(CC(C)C)CC(C)C)C(Cl)(Cl)Cl (stereo not given) | inactive |
| Cc1ccc(OP(=O)(Nc2ccccn2)Oc2ccc(C)cc2)cc1 | inactive |
| COC(=O)c1cc2c(s1)N=C(c1ccccc1)N(C)P2(=O)N1CCOCC1 (stereo not given) | inactive |
| CCC(=O)N1C2C3N(C(=O)CC)C1C1N(C(=O)CC)C(C(N1C(=O)CC)N3C(=O)CC)N2C(=O)CC | inactive |

| SMILES | outcome |
| --- | --- |
| CCN(CC)CCCOC(=O)C(O)(c1ccccc1)C1CCCCC1 (stereo not given) | inactive |
| O=C(OC1CN2CCC1CC2)c1ccccc1 (stereo not given) | inactive |
| CP(=O)(Nc1ccccc1)Oc1ccc(F)cc1 (stereo not given) | inactive |
| CCCCCOc1ccc(NP(C)(=O)Oc2ccc(Cl)cc2Cl)cc1 (stereo not given) | inactive |
| O=[N+]([O-])c1cc([N+](=O)[O-])c(OC2CCCCC2O)c([N+](=O)[O-])c1 (stereo not given) | inactive |
| CN(C)C(=O)Oc1noc2ccccc12 | inactive |
| Cc1ccccc1OP(=O)(Nc1ccccn1)Oc1ccccc1C | inactive |
| O=C(NC1CCS(=O)(=O)C1)NP(=S)(Oc1ccccc1)Oc1ccccc1 (stereo not given) | inactive |
| CCNC(=S)/N=C(\N)N[N+](=O)[O-] | inactive |
| Cc1ccc(NP(=O)(Oc2cccc(C)c2)Oc2cccc(C)c2)nc1 | inactive |
| CCOC(=O)NC(Sc1ccccc1)C(Cl)(Cl)Cl (stereo not given) | inactive |
| c1ccc(-c2nn[nH]n2)c(-c2nn[nH]n2)c1 | inactive |
| CCOC(=O)c1ccc(NP(C)(=O)Oc2ccc(F)cc2)cc1 (stereo not given) | inactive |
| COc1ccc(OP(C)(=O)Nc2ccc(SC(F)(F)F)cc2)cc1 (stereo not given) | inactive |
| O=C(OC1CN2CCC1CC2)c1ccc([N+](=O)[O-])cc1 (stereo not given) | inactive |
| CC(=O)c1ccc(N2CC2c2ccncc2)cc1 (stereo not given) | inactive |
| C[C@H]1OP(=O)(Oc2ccccc2)C[C@@H]2O[C@@H]21 (stereo not given in full) | inactive |
| C[C@@H]1C=CCP(=O)(Oc2ccccc2)O1 (stereo not given in full) | inactive |
| O=C(OCCN1CCN(CCOCc2ccccc2)CC1)C(O)(c1ccccc1)c1ccccc1 | inactive |
| CC(=O)Nc1ccc(Oc2c([N+](=O)[O-])cc([N+](=O)[O-])cc2[N+](=O)[O-])cc1 | inactive |
| CC(=O)Nc1ccc([As](=O)(O)O)c(O)c1 | inactive |
| COc1ccc2c(c1O)-c1c(O)c(OC)cc3c1[C@H](C2)[N+](C)(C)CC3.O=[N+]([O-])c1cc([N+](=O)[O-])c([O-])c([N+](=O)[O-])c1[O-] | inactive |
| CCOc1ccc(C2=NCC(CBr)S2)cc1 (stereo not given) | inactive |

| SMILES | outcome |
| --- | --- |
| O=P1(Nc2nc3ccc(Cl)cc3s2)COc2ccccc2O1 (stereo not given) | inactive |
| CP(=O)(Nc1ccccc1F)Oc1ccccc1 (stereo not given) | inactive |
| CC(C)c1ccc(OP(C)(=O)Nc2ccc(SC(F)(F)F)cc2)cc1 (stereo not given) | inactive |
| CC(C)(C)C(=O)NC(Sc1ccccc1)C(Cl)(Cl)Cl (stereo not given) | inactive |
| CP(=O)(Nc1ccc2c(c1)OCCO2)Oc1ccccc1 (stereo not given) | inactive |
| CP(=O)(Nc1ccc(SC(F)(F)F)cc1)Oc1ccc(F)cc1 (stereo not given) | inactive |
| O=P(Nc1nccs1)(c1ccccc1)c1ccccc1 | inactive |
| CC(C)C(=O)NC(Sc1ccccc1)C(Cl)(Cl)Cl (stereo not given) | inactive |
| CCOP(C)(=S)SCC(=O)NC(C)(CC)C(=O)O (stereo not given) | inactive |
| c1nnnn1CCn1cnnn1 | inactive |
| CC(=O)NC(SC(=S)N(C)C)C(Cl)(Cl)Cl (stereo not given) | inactive |
| O=[N+]([O-])c1ccc(OP2(=O)COCCO2)cc1 (stereo not given) | inactive |
| O=[N+]([O-])c1ncn(CCn2cnc([N+](=O)[O-])n2)n1 | inactive |
| O=[N+]([O-])c1ccc(O)c(/C=N/Nc2ccc([N+](=O)[O-])cc2[N+](=O)[O-])c1 | inactive |
| Cc1cc(-c2cccc3ccccc23)c(C)cn1.O=[N+]([O-])c1cc([N+](=O)[O-])c(O)c([N+](=O)[O-])c1 | inactive |
| O=[N+]([O-])c1cc([N+](=O)[O-])c(NCC2CCS(=O)(=O)C2)c([N+](=O)[O-])c1 (stereo not given) | inactive |
| O=[As](O)(c1ccccc1)c1ccc(O)cc1 | inactive |
| C(Cc1nn[nH]n1)Cc1nn[nH]n1 | inactive |
| Nc1ccc([As](=O)(O)c2ccc([N+](=O)[O-])cc2)cc1 | inactive |
| O=C(OC1CN2CCC1CC2)c1cccc(Cl)c1 (stereo not given) | inactive |
| COc1ccc(OP(C)(=O)Nc2cccc(Br)c2)cc1 (stereo not given) | inactive |
| CN(C)C1(CNC(=O)c2ccc(Cl)c(S(N)(=O)=O)c2)CCCCC1 | inactive |
| O=P(Nc1ccccn1)(c1ccc(Br)cc1)c1ccc(Br)cc1 | inactive |
